Source: patent US20230144845A1, “Alpha-Ketobutyrate, 2-Hydroxybutyrate, and Alpha-Ketoglutarate for Stimulating Hair Growth” (The Regents of the University of California, priority 2016, published 2023)
“Also recorded” adds a separate entry of the source.

System: 6-week old C57/B6 mice
Assay: Topical treatment of shaved dorsal skin of young mice: pigmentation and hair growth
Assay type: in vivo
Details: 16 mM in Transdermal Gel, topical every other day, vs control
Experimental: Mice were topically (unless indicated otherwise) treated every other day with the indicated amount and photos were taken every week. Mice were monitored for the appearance of skin pigmentation, signaling the initiation of anagen. No hair growth (and no pigmentation) was assigned the arbitrary value of 0. Skin darkening was given a value from 0 to 100%, with the higher number indicating darker skin and visible hair growth.
Compounds were dissolved in Transdermal Gel at 16 mM and applied on mice dorsal skin every other day. To show the pigmentation progression, the appearance of skin pigmentation, signaling the initiation of anagen, was assigned an arbitrary value based on skin darkening. No hair growth (and no pigmentation) was assigned a value of 0 and darker skin/visible hair growth was assigned with higher numbers. Photos were taken weekly to document the pigmentation/hair changes.
Dorsal hair was shaved by trimmer at Week 7 and α-KB acid was dissolved in Transdermal Gel at 16 mM and applied on mice dorsal skin every other day.

## O=C(O)CCC(=O)C(=O)O [α-KG, alpha-ketoglutarate]
  hair growth: longer and thicker hair than control; also recorded: stimulates hair growth by Day 14
  skin pigmentation (initiation of anagen): pigmentation burst was observed after one week; also recorded: reduces age-related pigmentation loss; also recorded: improves hair pigmentation
